Assay results reported in patent US20110038791A1, “METHODS FOR INHIBITING SIX1 AND EYA PROTEINS” (priority 2008, published 2011).

By UniProt entry, the sequences of proteins in these tests, tags left out. Where a name states a change or a piece, a line headed by the entry shows the natural chain unless it says otherwise.
UniProt O00167: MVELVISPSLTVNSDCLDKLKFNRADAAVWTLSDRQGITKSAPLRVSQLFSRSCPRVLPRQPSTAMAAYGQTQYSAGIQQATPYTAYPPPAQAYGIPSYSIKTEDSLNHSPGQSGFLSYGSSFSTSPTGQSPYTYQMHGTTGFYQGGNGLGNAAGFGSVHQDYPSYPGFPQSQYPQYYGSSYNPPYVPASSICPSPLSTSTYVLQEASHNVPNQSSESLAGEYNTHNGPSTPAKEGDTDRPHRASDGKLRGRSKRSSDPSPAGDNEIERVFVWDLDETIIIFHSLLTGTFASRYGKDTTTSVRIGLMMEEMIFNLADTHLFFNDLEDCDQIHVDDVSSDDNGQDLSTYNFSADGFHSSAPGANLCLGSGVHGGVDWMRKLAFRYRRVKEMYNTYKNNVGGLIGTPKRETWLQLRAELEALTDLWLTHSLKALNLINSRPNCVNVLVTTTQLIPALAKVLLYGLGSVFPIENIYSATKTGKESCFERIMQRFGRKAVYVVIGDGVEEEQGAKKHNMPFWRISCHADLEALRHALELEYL

Target: human Eya2 Eya Domain (ED) (Homo sapiens, UniProt O00167)
Assay: Inhibition of the phosphatase activity of Eya2 Eya Domain (ED) by known phosphatase inhibitors
Type: biochemical
Conditions: read-out: IC50 for inhibition of Eya2 ED phosphatase activity, FIG. 20

NaF was tested. Which IC50 did it give?
Its IC50 is 6.6 mM.
